The assay deals with T1, α2-Receptor (Rattus norvegicus, UniProt P22909).
T1 construct: the cortical tissue rapidly dissected; from tissue; host or cells: cortical tissue of male Wistar rats, washed membrane suspension
The assay is described as follows: [^3 H]-Clonidine Binding: α2-Receptor. The arrangement: species or system rat (male Wistar). Particulars: rat cortical tissue; 3 nM [^3 H]-clonidine; 25° C., 20 min; Table 2.

The chains behind the UniProt entries cited, without tags or fusion partners.
UniProt P22909, whole entry: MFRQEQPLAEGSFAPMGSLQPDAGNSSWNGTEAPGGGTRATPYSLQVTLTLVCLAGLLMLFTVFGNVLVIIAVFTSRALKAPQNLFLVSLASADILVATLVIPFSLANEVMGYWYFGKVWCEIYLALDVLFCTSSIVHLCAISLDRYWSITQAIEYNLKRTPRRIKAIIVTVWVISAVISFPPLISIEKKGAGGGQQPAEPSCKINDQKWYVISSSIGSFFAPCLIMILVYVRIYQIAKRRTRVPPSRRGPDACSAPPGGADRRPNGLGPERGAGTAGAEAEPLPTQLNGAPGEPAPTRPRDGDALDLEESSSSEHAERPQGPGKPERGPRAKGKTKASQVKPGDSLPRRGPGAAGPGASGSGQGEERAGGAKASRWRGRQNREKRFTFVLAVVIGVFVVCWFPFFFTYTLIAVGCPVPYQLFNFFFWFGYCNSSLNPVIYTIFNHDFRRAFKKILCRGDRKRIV

The text below walks through data of patent US5246947A, “Substituted pyridinylamino-1,2-benzisothiazoles and their use for treating depression” (Hoechst-Roussel Pharmaceuticals Incorporated, priority 1992, dated 1993).

Each structure is given as a SMILES string.

The term IC50 denotes the concentration needed to halve the response being measured. `CN(C)CCC=C1c2ccccc2CCc2ccccc21` [Amitriptyline] registered an IC50 of 3.9 µM.
